From patent US9290488B2, “Azetidine-substituted quinoxalines as opioid receptor like-1 modulators” (priority 2011, dated 2016)

Chains of the proteins cited; added tags and fusions are not shown.
UniProt P35372, whole entry: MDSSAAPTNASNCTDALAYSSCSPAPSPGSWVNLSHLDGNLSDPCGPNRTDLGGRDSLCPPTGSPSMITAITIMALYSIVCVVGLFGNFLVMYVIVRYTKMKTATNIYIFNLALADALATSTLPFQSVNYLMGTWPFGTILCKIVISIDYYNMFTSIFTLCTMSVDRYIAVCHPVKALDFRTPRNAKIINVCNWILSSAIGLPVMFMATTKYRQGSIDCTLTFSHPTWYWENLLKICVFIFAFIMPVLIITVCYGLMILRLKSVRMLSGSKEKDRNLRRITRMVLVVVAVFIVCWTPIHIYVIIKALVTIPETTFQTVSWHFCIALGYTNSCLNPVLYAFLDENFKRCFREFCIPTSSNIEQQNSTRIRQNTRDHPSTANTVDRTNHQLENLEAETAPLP
UniProt P41146, whole entry: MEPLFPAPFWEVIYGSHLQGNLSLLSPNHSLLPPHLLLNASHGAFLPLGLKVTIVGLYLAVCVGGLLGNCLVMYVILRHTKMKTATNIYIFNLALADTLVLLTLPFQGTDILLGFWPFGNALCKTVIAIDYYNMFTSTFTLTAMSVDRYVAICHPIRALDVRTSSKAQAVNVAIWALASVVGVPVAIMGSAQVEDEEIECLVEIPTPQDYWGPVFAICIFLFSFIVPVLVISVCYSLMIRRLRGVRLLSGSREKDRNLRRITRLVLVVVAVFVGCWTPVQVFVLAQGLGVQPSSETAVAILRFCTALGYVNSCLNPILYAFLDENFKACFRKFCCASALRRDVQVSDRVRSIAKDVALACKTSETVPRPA

What was measured:
human μ-receptors = human μ-receptors (Homo sapiens (Human), UniProt P35372); assay: In vitro mu-opioid receptor [35S]GTPγS functional assay
[1] = biological target: human opioid receptor-like (ORL-1) (Homo sapiens (Human), UniProt P41146); assay: ORL-1 receptor [35S]GTPγS functional binding assay; assay type: biochemical; settings: ORL-1 GTPγS

With `CC[C@@H]1C[C@@H]2C[C@H](C1)C[C@@H](N1[C@@H]3CCC[C@H]1C[C@@H](n1c(=O)c(N4CC(C(=O)O)C4)nc4ccccc41)C3)C2` the “GTPγS Emax [mean ± SEM] Opioid Receptor Mu” value (human μ-receptors) was 41.3 ± 4.1% and the “GTPγS Emax [mean ± SEM] ORL-1” value [1] was 44.0 ± 4.0%.
